Chains of the proteins cited; added tags and fusions are not shown. Residues count along the entry.
UniProt P02786, 89-760 limits assumed: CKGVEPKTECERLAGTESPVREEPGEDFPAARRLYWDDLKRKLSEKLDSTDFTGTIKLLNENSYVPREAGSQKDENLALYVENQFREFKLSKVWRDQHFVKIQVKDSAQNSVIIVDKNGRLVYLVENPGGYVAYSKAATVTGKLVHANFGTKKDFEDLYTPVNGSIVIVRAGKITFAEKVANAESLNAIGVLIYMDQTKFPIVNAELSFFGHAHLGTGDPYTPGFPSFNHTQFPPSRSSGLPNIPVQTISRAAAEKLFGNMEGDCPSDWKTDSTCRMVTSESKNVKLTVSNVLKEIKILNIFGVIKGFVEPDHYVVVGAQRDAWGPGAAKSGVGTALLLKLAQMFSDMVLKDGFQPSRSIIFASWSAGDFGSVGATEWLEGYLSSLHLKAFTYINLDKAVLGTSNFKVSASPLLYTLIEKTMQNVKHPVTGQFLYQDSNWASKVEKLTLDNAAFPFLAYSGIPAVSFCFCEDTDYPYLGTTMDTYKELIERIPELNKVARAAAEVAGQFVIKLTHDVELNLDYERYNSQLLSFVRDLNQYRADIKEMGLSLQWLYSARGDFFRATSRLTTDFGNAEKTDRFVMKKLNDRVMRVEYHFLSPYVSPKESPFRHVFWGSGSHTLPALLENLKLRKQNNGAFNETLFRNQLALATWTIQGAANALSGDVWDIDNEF

In patent US20260116920A1, “HUMAN TRANSFERRIN RECEPTOR BINDING PEPTIDE” (PEPTIDREAM INC., priority 2021, published 2026):

target: T1, human transferrin receptor (hTfR) (Homo sapiens, UniProt P02786); experiment: Evaluation of molecular interaction between transferrin receptor (hTfR) and peptide using surface plasmon resonance (SPR); assay type: binding; details: KD class of peptide with linker binding to hTfR, by SPR (TABLE 5); read-out: SPR
T1 construct: made in house
Procedure, shortened: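 Binding kinetics of peptides to immobilized recombinant human TfR dimer were measured by SPR at 5–100 nM in a single-cycle format, with KD obtained from curve fitting.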

First: CC[C@H](C)[C@@H]1NC(=O)[C@H](Cc2ccc(OCC(=O)O)cc2)NC(=O)[C@H](Cc2ccc(O)cc2)NC(=O)[C@H](CC(N)=O)NC(=O)[C@H](Cc2cn(CC(=O)O)c3ccccc23)NC(=O)[C@H](C(C)C)NC(=O)[C@H](Cc2cccc(Cl)c2)N(C)C(=O)[C@H](C(C)C)NC(=O)[C@H](C)NC(=O)CSC[C@@H](C(=O)NCC(=O)N[C@H](CO)C(=O)N[C@H](CO)C(=O)N[C@H](CCC(=O)O)C(=O)N[C@H](CCC(=O)O)C(=O)N[C@H](CO)C(=O)N[C@@H](CCCCNC(C)=O)C(N)=O)NC(=O)[C@H](Cc2ccc(O)cc2)N(C)C(=O)[C@H](Cc2ccccc2)NC(=O)[C@H](CCCNC(=N)N)NC(=O)[C@H](CCCNC(=N)N)NC(=O)[C@H]([C@@H](C)CC)NC1=O [compound 311]
Second: CC[C@H](C)[C@@H]1NC(=O)[C@H](Cc2ccc(OCC(=O)O)cc2)NC(=O)[C@H](Cc2ccc(O)cc2)NC(=O)[C@H](CC(N)=O)NC(=O)[C@H](Cc2cn(CC(=O)O)c3ccccc23)NC(=O)[C@H](C(C)C)NC(=O)[C@H](Cc2cccc(Cl)c2)N(C)C(=O)[C@H](C(C)C)NC(=O)[C@H](C)NC(=O)CSC[C@@H](C(=O)NCC(=O)N[C@H](CO)C(=O)N[C@H](CO)C(=O)N[C@H](CCC(=O)O)C(=O)N[C@H](CO)C(=O)N[C@H](CCC(=O)O)C(=O)N[C@@H](CCCCNC(C)=O)C(N)=O)NC(=O)[C@H](Cc2ccc(O)cc2)N(C)C(=O)[C@H](Cc2ccccc2)NC(=O)[C@H](CCCNC(=N)N)NC(=O)[C@H](CCCNC(=N)N)NC(=O)[C@H]([C@@H](C)CC)NC1=O [compound 312]
The Kd of the first is higher: 1 to 100 nM for the first, under 1 nM for the second.

`CC[C@H](C)[C@@H]1NC(=O)[C@H](Cc2ccc(OCC(=O)O)cc2)NC(=O)[C@H](Cc2ccc(O)cc2)NC(=O)[C@H](CC(N)=O)NC(=O)[C@H](Cc2cn(CC(=O)O)c3ccccc23)NC(=O)[C@H](C(C)C)NC(=O)[C@H](Cc2cccc(Cl)c2)N(C)C(=O)[C@H](C(C)C)NC(=O)[C@H](C)NC(=O)CSC[C@@H](C(=O)NCC(=O)N[C@H](CCC(=O)O)C(=O)N[C@H](CO)C(=O)N[C@H](CO)C(=O)N[C@H](CCC(=O)O)C(=O)N[C@H](CO)C(=O)N[C@@H](CCCCNC(C)=O)C(N)=O)NC(=O)[C@H](Cc2ccc(O)cc2)N(C)C(=O)[C@H](Cc2ccccc2)NC(=O)[C@H](CCCNC(=N)N)NC(=O)[C@H](CCCNC(=N)N)NC(=O)[C@H]([C@@H](C)CC)NC1=O` [compound 313] and `CC[C@H](C)[C@@H]1NC(=O)[C@H](Cc2ccc(OCC(=O)O)cc2)NC(=O)[C@H](Cc2ccc(O)cc2)NC(=O)[C@H](CC(N)=O)NC(=O)[C@H](Cc2cn(CC(=O)O)c3ccccc23)NC(=O)[C@H](C(C)C)NC(=O)[C@H](Cc2cccc(Cl)c2)N(C)C(=O)[C@H](C(C)C)NC(=O)[C@H](C)NC(=O)CSC[C@@H](C(=O)NCC(=O)N[C@H](CO)C(=O)N[C@H](CCC(=O)O)C(=O)N[C@H](CO)C(=O)N[C@H](CCC(=O)O)C(=O)N[C@H](CO)C(=O)N[C@@H](CCCCNC(C)=O)C(N)=O)NC(=O)[C@H](Cc2ccc(O)cc2)N(C)C(=O)[C@H](Cc2ccccc2)NC(=O)[C@H](CCCNC(=N)N)NC(=O)[C@H](CCCNC(=N)N)NC(=O)[C@H]([C@@H](C)CC)NC1=O` [compound 314] fall in the same range of Kd: 1 to 100 nM for the first, 1 to 100 nM for the second.

`CC[C@H](C)[C@@H]1NC(=O)[C@H](Cc2ccc(OCC(=O)O)cc2)NC(=O)[C@H](Cc2ccc(O)cc2)NC(=O)[C@H](CC(N)=O)NC(=O)[C@H](Cc2cn(CC(=O)O)c3ccccc23)NC(=O)[C@H](C(C)C)NC(=O)[C@H](Cc2cccc(Cl)c2)N(C)C(=O)[C@H](C(C)C)NC(=O)[C@H](C)NC(=O)CSC[C@@H](C(=O)NCC(=O)N[C@H](CCC(=O)O)C(=O)N[C@H](CO)C(=O)N[C@H](CO)C(=O)N[C@H](CO)C(=O)N[C@H](CO)C(=O)N[C@@H](CCCCNC(C)=O)C(N)=O)NC(=O)[C@H](Cc2ccc(O)cc2)N(C)C(=O)[C@H](Cc2ccccc2)NC(=O)[C@H](CCCNC(=N)N)NC(=O)[C@H](CCCNC(=N)N)NC(=O)[C@H]([C@@H](C)CC)NC1=O` [compound 315] and `CC[C@H](C)[C@@H]1NC(=O)[C@H](Cc2ccc(OCC(=O)O)cc2)NC(=O)[C@H](Cc2ccc(O)cc2)NC(=O)[C@H](CC(N)=O)NC(=O)[C@H](Cc2cn(CC(=O)O)c3ccccc23)NC(=O)[C@H](C(C)C)NC(=O)[C@H](Cc2cccc(Cl)c2)N(C)C(=O)[C@H](C(C)C)NC(=O)[C@H](C)NC(=O)CSC[C@@H](C(=O)NCC(=O)N[C@H](CO)C(=O)N[C@H](CO)C(=O)N[C@H](CCC(=O)O)C(=O)N[C@H](CO)C(=O)N[C@H](CO)C(=O)N[C@@H](CCCCNC(C)=O)C(N)=O)NC(=O)[C@H](Cc2ccc(O)cc2)N(C)C(=O)[C@H](Cc2ccccc2)NC(=O)[C@H](CCCNC(=N)N)NC(=O)[C@H](CCCNC(=N)N)NC(=O)[C@H]([C@@H](C)CC)NC1=O` [compound 316] fall in the same range of Kd: 1 to 100 nM for the first, 1 to 100 nM for the second.

Compared with `CC[C@H](C)[C@@H]1NC(=O)[C@H](Cc2ccc(OCC(=O)O)cc2)NC(=O)[C@H](Cc2ccc(O)cc2)NC(=O)[C@H](CC(N)=O)NC(=O)[C@H](Cc2cn(CC(=O)O)c3ccccc23)NC(=O)[C@H](C(C)C)NC(=O)[C@H](Cc2cccc(Cl)c2)N(C)C(=O)[C@H](C(C)C)NC(=O)[C@H](C)NC(=O)CSC[C@@H](C(=O)NCC(=O)N[C@H](CO)C(=O)N[C@H](CO)C(=O)N[C@H](CO)C(=O)N[C@H](CO)C(=O)N[C@H](CCC(=O)O)C(=O)N[C@@H](CCCCNC(C)=O)C(N)=O)NC(=O)[C@H](Cc2ccc(O)cc2)N(C)C(=O)[C@H](Cc2ccccc2)NC(=O)[C@H](CCCNC(=N)N)NC(=O)[C@H](CCCNC(=N)N)NC(=O)[C@H]([C@@H](C)CC)NC1=O` [compound 317], `CC[C@H](C)[C@@H]1NC(=O)[C@H](Cc2ccc(OCC(=O)O)cc2)NC(=O)[C@H](Cc2ccc(O)cc2)NC(=O)[C@H](CC(N)=O)NC(=O)[C@H](Cc2cn(CC(=O)O)c3ccccc23)NC(=O)[C@H](C(C)C)NC(=O)[C@H](Cc2cccc(Cl)c2)N(C)C(=O)[C@H](C(C)C)NC(=O)[C@H](C)NC(=O)CSC[C@@H](C(=O)NCC(=O)N[C@H](CCC(=O)O)C(=O)N[C@H](CO)C(=O)N[C@H](CO)C(=O)N[C@H](CO)C(=O)N[C@H](CCC(=O)O)C(=O)N[C@@H](CCCCNC(C)=O)C(N)=O)NC(=O)[C@H](Cc2ccc(O)cc2)N(C)C(=O)[C@H](Cc2ccccc2)NC(=O)[C@H](CCCNC(=N)N)NC(=O)[C@H](CCCNC(=N)N)NC(=O)[C@H]([C@@H](C)CC)NC1=O` [compound 318] is higher in Kd: under 1 nM for the first, 1 to 100 nM for the second. The first binds more tightly here.

`CC[C@H](C)[C@@H]1NC(=O)[C@H](Cc2ccc(OCC(=O)O)cc2)NC(=O)[C@H](Cc2ccc(O)cc2)NC(=O)[C@H](CC(N)=O)NC(=O)[C@H](Cc2cn(CC(=O)O)c3ccccc23)NC(=O)[C@H](C(C)C)NC(=O)[C@H](Cc2cccc(Cl)c2)N(C)C(=O)[C@H](C(C)C)NC(=O)[C@H](C)NC(=O)CSC[C@@H](C(=O)NCC(=O)N[C@H](CCC(=O)O)C(=O)N[C@H](CCC(=O)O)C(=O)N[C@H](CO)C(=O)N[C@H](CO)C(=O)N[C@H](CO)C(=O)N[C@@H](CCCCNC(C)=O)C(N)=O)NC(=O)[C@H](Cc2ccc(O)cc2)N(C)C(=O)[C@H](Cc2ccccc2)NC(=O)[C@H](CCCNC(=N)N)NC(=O)[C@H](CCCNC(=N)N)NC(=O)[C@H]([C@@H](C)CC)NC1=O` [compound 319] and `CC[C@H](C)[C@@H]1NC(=O)[C@H](Cc2ccc(OCC(=O)O)cc2)NC(=O)[C@H](Cc2ccc(O)cc2)NC(=O)[C@H](CC(N)=O)NC(=O)[C@H](Cc2cn(CC(=O)O)c3ccccc23)NC(=O)[C@H](C(C)C)NC(=O)[C@H](Cc2cccc(Cl)c2)N(C)C(=O)[C@H](C(C)C)NC(=O)[C@H](C)NC(=O)CSC[C@@H](C(=O)NCC(=O)N[C@H](CO)C(=O)N[C@H](CCC(=O)O)C(=O)N[C@H](CCC(=O)O)C(=O)N[C@H](CO)C(=O)N[C@H](CO)C(=O)N[C@@H](CCCCNC(C)=O)C(N)=O)NC(=O)[C@H](Cc2ccc(O)cc2)N(C)C(=O)[C@H](Cc2ccccc2)NC(=O)[C@H](CCCNC(=N)N)NC(=O)[C@H](CCCNC(=N)N)NC(=O)[C@H]([C@@H](C)CC)NC1=O` [compound 320] fall in the same range of Kd: 1 to 100 nM for the first, 1 to 100 nM for the second.

Work on `CC[C@H](C)[C@@H]1NC(=O)[C@H](Cc2ccc(OCC(=O)O)cc2)NC(=O)[C@H](Cc2ccc(O)cc2)NC(=O)[C@H](CC(N)=O)NC(=O)[C@H](Cc2cn(CC(=O)O)c3ccccc23)NC(=O)[C@H](C(C)C)NC(=O)[C@H](Cc2cccc(Cl)c2)N(C)C(=O)[C@H](C(C)C)NC(=O)[C@H](C)NC(=O)CSC[C@@H](C(=O)NCC(=O)N[C@H](CO)C(=O)N[C@H](CCC(=O)O)C(=O)N[C@H](CO)C(=O)N[C@H](CO)C(=O)N[C@H](CCC(=O)O)C(=O)N[C@@H](CCCCNC(C)=O)C(N)=O)NC(=O)[C@H](Cc2ccc(O)cc2)N(C)C(=O)[C@H](Cc2ccccc2)NC(=O)[C@H](CCCNC(=N)N)NC(=O)[C@H](CCCNC(=N)N)NC(=O)[C@H]([C@@H](C)CC)NC1=O` [compound 321] yielded a Kd of 1 to 100 nM.

same assay, conditions: KD class of the peptide with linker for hTfR by surface plasmon resonance; read-out: SPR

`CC[C@H](C)[C@@H]1NC(=O)[C@H](Cc2ccc(OCC(=O)O)cc2)NC(=O)[C@H](Cc2ccc(O)cc2)NC(=O)[C@H](CC(N)=O)NC(=O)[C@H](Cc2cn(CC(=O)O)c3ccccc23)NC(=O)[C@H](C(C)C)NC(=O)[C@H](Cc2cccc(Cl)c2)N(C)C(=O)[C@H](C(C)C)NC(=O)[C@H](C)NC(=O)CSC[C@@H](C(=O)NCC(=O)N[C@H](CO)C(=O)N[C@H](CO)C(=O)N[C@H](CO)C(=O)N[C@H](CO)C(=O)N[C@H](CO)C(=O)N[C@@H](CCCCNC(C)=O)C(N)=O)NC(=O)[C@H](Cc2ccc(O)cc2)N(C)C(=O)[C@H](Cc2cccc(C(=O)O)c2)NC(=O)[C@H](CCCCN2CCOCC2)NC(=O)[C@H](CCCCN2CCOCC2)NC(=O)[C@H]([C@@H](C)CC)NC1=O` [compound 309] and `CC[C@H](C)[C@@H]1NC(=O)[C@H](Cc2ccc(OCC(=O)O)cc2)NC(=O)[C@H](Cc2ccc(O)cc2)NC(=O)[C@H](CC(N)=O)NC(=O)[C@H](Cc2cn(CC(=O)O)c3ccccc23)NC(=O)[C@H](C(C)C)NC(=O)[C@H](Cc2cccc(Cl)c2)N(C)C(=O)[C@H](C(C)C)NC(=O)[C@H](C)NC(=O)CSC[C@@H](C(=O)NCC(=O)N[C@H](CO)C(=O)N[C@H](CO)C(=O)N[C@H](CO)C(=O)N[C@H](CCC(=O)O)C(=O)N[C@H](CCC(=O)O)C(=O)N[C@@H](CCCCNC(C)=O)C(N)=O)NC(=O)[C@H](Cc2ccc(O)cc2)N(C)C(=O)[C@H](Cc2ccccc2)NC(=O)[C@H](CCCNC(=N)N)NC(=O)[C@H](CCCNC(=N)N)NC(=O)[C@H]([C@@H](C)CC)NC1=O` [compound 310] fall in the same range of Kd: 1 to 100 nM for the first, 1 to 100 nM for the second.
